# In patent US6506381B1, “Modified red blood cell that has surface molecules that neutralize chemical agents” (dated 2003):
# This is a selection: effects in other tests are not listed, and their absence says nothing.
# System: Fisher rats
# Test: paraoxone challenge of rats carrying modified red blood cells
# Conditions: 5X (X=published LD50) i.p., control rats having no modified red blood cells
substance,measurement,value
paraoxone,lethality,uniformly lethal
